Laboratory results taken from ChEMBL document CHEMBL5608219, “Structure-based screening, optimization and biological evaluation of novel chrysin-based derivatives as selective PPARγ modulators for the treatment of T2DM and hepatic steatosis” (Eur J Med Chem, 2024).

Sequences of proteins named here, by UniProt entry; tags and fusion partners are left off. A change or cut given only in a name is not applied to a line headed by its entry.
UniProt P37231: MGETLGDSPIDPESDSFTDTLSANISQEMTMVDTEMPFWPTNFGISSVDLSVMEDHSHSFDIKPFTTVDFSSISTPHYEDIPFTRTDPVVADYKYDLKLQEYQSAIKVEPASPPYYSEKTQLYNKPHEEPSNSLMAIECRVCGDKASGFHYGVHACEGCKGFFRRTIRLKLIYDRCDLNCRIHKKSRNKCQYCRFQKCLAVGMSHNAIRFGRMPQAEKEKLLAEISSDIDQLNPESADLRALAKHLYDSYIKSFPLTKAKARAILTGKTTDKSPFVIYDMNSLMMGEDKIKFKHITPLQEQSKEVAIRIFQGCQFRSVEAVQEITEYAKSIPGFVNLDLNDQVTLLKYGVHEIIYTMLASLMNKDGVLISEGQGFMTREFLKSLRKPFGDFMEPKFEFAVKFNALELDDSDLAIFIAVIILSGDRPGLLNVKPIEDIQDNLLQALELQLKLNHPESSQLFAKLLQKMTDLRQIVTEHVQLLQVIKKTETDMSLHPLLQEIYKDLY

Columns and labels:
Mus musculus [1] = assay: Anti-NAFL activity in db/db mouse assessed as reduction in vacuole size at 20 mg/kg, ip administered for 21 days by H and E staining based assay; type: functional, organism-based; settings: time 21.0 day
Mus musculus [2] = assay: Anti-NAFL activity in db/db mouse assessed as reduction in amount of lipid droplets at 20 mg/kg, ip administered for 21 days by Oil Red O staining based assay; type: functional, organism-based; settings: time 21.0 day
Mus musculus [3] = assay: Anti-NAFL activity in db/db mouse assessed as reduction in serum TG content at 20 mg/kg, ip administered for 21 days; type: functional, organism-based; settings: time 21.0 day
Mus musculus [4] = assay: Anti-NAFL activity in db/db mouse assessed as reduction in serum TC content at 20 mg/kg, ip administered for 21 days; type: functional, organism-based; settings: time 21.0 day
Mus musculus [5] = assay: Anti-NAFL activity in db/db mouse assessed as reduction in serum LDLC content at 20 mg/kg, ip administered for 21 days; type: functional, organism-based; settings: time 21.0 day
Mus musculus [6] = assay: Anti-NAFL activity in db/db mouse assessed as reduction in hepatic TG content at 20 mg/kg, ip administered for 21 days; type: functional, organism-based; settings: time 21.0 day
Mus musculus [7] = assay: Anti-NAFL activity in db/db mouse assessed as reduction in hepatic TC content at 20 mg/kg, ip administered for 21 days; type: functional, organism-based; settings: time 21.0 day
Mus musculus [8] = assay: Anti-NAFL activity in db/db mouse assessed as decrease in liver injury by measuring reduced serum AST level at 20 mg/kg, ip administered for 21 days; type: functional, organism-based; settings: time 21.0 day
Mus musculus [9] = assay: Anti-NAFL activity in db/db mouse assessed as decrease in liver injury by measuring reduced serum ALT level at 20 mg/kg, ip administered for 21 days; type: functional, organism-based; settings: time 21.0 day
3T3-L1 = assay: Induction of adipocytes differentiation in insulin/IBMX stimulated mouse 3T3-L1 assessed as lipid accumulation at 10 uM incubated for 2 days followed by insulin addition for another 6 days by Oil Red O staining based microscopic assay (reference value: 15.09%); type: functional; settings: time 8 day
[10] = Toxicity in db/db mouse assessed as body weight gain at 10 to 40 mg/kg, ip administered for 21 days; type: organism-based; settings: in vivo, 504 h, dose 10-40 mg/kg, time 21 day
[11] = Toxicity in db/db mouse assessed as reduction in body weight at 20 to 40 mg/kg, ip administered for 21 days; type: organism-based; settings: in vivo, 504 h, dose 20-40 mg/kg, time 21 day
[12] = target: Peroxisome proliferator-activated receptor gamma (Homo sapiens) (UniProt P37231); assay: Binding affinity to GST tagged PPARgamma LBD (unknown origin) at 100 uM preincubated in shaker for 30 sec followed by incubation for additional 4 hrs at room temperature by LanthaScreen TR-FRET competitive binding assay; settings: filed as agonist, time 14430.0 sec
[13] = target: Peroxisome proliferator-activated receptor gamma (Homo sapiens) (UniProt P37231); assay: Agonist activity at human PPARgamma transfected in COS7 cells at 1 to 10 uM incubated for 24 hrs by luciferase based microplate reader assay; type: cell-based; settings: filed as agonist, dose 1-10 µM

With `Clc1ccc(C(Cn2ccnc2)OCc2ccc(Sc3ccccc3)cc2)c(Cl)c1.O=[N+]([O-])O` (centres undefined) [FENTICONAZOLE NITRATE] the Activity (Mus musculus [1]) was “Active”, the Activity (Mus musculus [2]) was “Active” and the Activity (Mus musculus [3]) was “Active”. For the same compound, the Activity (Mus musculus [4]) was “Active”, the Activity (Mus musculus [5]) was “Active” and the Activity (Mus musculus [6]) was “Active”. For the same compound, the Activity (Mus musculus [7]) was “Active”, the Activity (Mus musculus [8]) was “Active” and the Activity (Mus musculus [9]) was “Active”.
In the case of `O=C(COc1cc(O)c2c(=O)cc(-c3ccccc3)oc2c1)NCc1ccc(C(F)(F)F)cc1`, the Activity (3T3-L1) is reported as 12.11%, the Activity [10] is reported as “Non-Toxic” and the Activity [11] is reported as “Toxic”.
For `O=c1cc(-c2ccccc2)oc2cc(O)cc(O)c12` [CHRYSIN], the Activity [12] was “Active” and the Activity [13] was “Active”.

Active and inactive are the calls of the source. The calls are words filed in the database; no cut-off is given here.
